Data published in patent EP4088745A1, “COMPOUND FOR THE DIAGNOSIS OF CANCER” (Eberhard Karls Universität Tübingen Medizinische Fakultät, priority 2021, dated 2022).

Target: T1, tankyrase 2 (Homo sapiens, UniProt Q9H2K2)
T1 sequence (Q9H2K2 1-1166): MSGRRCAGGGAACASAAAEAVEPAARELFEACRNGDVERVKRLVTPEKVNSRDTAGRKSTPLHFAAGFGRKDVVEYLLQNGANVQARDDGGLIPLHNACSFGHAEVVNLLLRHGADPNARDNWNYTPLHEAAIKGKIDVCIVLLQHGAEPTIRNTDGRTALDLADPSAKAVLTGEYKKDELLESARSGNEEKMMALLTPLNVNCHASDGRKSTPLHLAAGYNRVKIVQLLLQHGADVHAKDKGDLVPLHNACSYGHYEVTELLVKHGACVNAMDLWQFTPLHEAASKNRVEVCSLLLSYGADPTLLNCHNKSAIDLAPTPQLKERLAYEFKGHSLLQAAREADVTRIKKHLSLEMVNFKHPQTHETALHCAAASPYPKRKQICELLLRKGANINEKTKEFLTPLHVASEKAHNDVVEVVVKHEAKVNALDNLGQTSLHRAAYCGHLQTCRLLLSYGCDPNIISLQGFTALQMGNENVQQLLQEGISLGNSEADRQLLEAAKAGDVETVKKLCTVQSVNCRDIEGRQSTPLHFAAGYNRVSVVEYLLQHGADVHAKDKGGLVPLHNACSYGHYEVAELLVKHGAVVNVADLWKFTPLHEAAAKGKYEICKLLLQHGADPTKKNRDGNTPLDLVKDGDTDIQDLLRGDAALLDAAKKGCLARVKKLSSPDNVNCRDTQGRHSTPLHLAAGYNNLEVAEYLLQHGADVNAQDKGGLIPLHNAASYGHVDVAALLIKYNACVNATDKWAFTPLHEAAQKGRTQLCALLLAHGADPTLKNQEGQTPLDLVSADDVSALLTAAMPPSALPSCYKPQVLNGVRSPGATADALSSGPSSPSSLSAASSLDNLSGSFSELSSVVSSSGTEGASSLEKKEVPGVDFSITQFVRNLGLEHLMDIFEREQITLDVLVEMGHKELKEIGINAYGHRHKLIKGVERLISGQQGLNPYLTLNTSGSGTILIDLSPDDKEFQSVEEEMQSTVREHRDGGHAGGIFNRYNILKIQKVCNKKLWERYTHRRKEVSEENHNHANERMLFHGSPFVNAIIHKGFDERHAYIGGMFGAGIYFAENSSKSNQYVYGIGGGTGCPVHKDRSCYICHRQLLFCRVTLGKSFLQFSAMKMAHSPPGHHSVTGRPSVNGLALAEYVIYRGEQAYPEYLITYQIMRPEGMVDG
Test: Affinity for tankyrase 2 (Fig. 13)
Assay type: binding

affinity for tankyrase 2 (IC50): low nanomolar range
SMILES: Cn1ncnc1[C@H]1c2n[nH]c(=O)c3cc(F)cc(c23)N[C@@H]1c1ccc(F)cc1 [talazoparib, (8S,9R)-5-Fluoro-8-(4-fluorophenyl)-2,7,8,9-tetrahydro-9-(1-methyl-1H-1,2,4-triazol-5-yl)-3H-pyrido[4,3,2-de]phthalazin-3-one]
